From ChEMBL document CHEMBL4351013, “Carboxamides vs. methanimines: Crystal structures, binding interactions, photophysical studies, and biological evaluation of (indazole-5-yl)methanimines as monoamine oxidase B and acetylcholinesterase inhibitors” (Eur J Med Chem, 2019)

By UniProt entry, the sequences of proteins in these tests, tags left out.
UniProt P27338, whole entry: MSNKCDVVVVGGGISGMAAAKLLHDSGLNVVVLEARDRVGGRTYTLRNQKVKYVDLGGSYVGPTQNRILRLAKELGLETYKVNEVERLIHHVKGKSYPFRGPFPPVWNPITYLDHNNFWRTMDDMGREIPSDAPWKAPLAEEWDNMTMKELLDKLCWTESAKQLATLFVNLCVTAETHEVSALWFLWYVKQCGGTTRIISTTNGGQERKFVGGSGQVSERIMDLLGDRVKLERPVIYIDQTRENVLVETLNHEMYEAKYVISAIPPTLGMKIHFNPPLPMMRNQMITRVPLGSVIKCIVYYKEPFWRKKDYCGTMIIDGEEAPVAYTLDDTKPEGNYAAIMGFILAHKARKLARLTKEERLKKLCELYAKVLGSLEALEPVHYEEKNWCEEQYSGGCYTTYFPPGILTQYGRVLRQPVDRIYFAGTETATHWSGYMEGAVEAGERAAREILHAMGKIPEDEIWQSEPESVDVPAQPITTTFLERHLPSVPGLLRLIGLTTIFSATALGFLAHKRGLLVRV

Legend:
[1] = target: T1, Amine oxidase [flavin-containing] B (Homo sapiens, UniProt P27338); experiment: Competitive inhibition of human recombinant MAO-B expressed in baculovirus infected BTI-TN-5B1-4 insect cells using p-tyramine as substrate by Dixon- plot analysis
[2] = target: T1, Amine oxidase [flavin-containing] B; experiment: Competitive inhibition of human recombinant MAO-B expressed in baculovirus infected BTI-TN-5B1-4 insect cells using p-tyramine as substrate by Lineweaver-Burk plot analysis

## Cn1ncc2cc(C(=O)Nc3ccc(Cl)c(Cl)c3)ccc21
[1]
  Ki: 0.22 nM
[2]
  inhibition (INH): Active
